As usually defined, the IC50 is the concentration at which inhibition is half-maximal. Higher therefore signals a need for much substance.

The chains behind the UniProt entries cited, without tags or fusion partners. Residues count along the entry.
UniProt O42275, 24-633: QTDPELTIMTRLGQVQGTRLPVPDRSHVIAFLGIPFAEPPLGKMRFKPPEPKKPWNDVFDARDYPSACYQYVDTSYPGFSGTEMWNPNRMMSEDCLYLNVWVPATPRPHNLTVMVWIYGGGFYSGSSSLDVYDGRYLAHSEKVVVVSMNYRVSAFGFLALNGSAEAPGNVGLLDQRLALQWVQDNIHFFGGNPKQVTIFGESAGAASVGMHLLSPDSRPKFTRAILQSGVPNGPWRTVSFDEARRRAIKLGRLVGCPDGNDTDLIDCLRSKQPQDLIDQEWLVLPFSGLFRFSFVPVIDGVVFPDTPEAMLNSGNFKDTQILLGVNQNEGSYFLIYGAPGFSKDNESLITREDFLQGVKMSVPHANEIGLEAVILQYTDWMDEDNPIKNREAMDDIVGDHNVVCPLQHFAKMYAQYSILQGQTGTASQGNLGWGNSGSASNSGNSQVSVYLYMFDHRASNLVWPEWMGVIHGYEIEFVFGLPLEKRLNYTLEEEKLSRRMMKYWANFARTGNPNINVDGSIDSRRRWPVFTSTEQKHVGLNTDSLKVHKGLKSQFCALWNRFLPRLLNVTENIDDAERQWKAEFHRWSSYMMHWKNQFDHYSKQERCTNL

The values that follow come from article PMC7999702, “Bioactive Bromotyrosine Derivatives from the Pacific Marine Sponge Suberea clavata (Pulitzer-Finali, 1982)” (Marine Drugs, 2021).

The assay deals with T1, Acetylcholinesterase from Electrophorus electricus (Electrophorus electricus, UniProt O42275).
T1 construct: purchased Sigma-Aldrich
The format is biochemical. The settings on record: mean ± SD, triplicate; 30 min at 25 °C, absorbance 405 nm. As for the experimental part: This bioassay was set up after Ellman. This method is the most commonly used to screen compounds against this target. All reagents, buffers, and salts were purchased from Sigma-Aldrich (Saint-Louis, MO, USA). Two buffer solutions were prepared extemporaneously: buffer A (50 mM Tris-HCl pH 8 + 0.1% BSA); and buffer B (50 mM Tris-HCl pH 8 + 0.1 M NaCl + 0.02 M MgCl2.6H2O). Acetylcholinesterase from Electrophorus electricus (EC 3.1.1.7, AChE−0.2 U/mL) was dissolved in buffer A, 5,5′-dithiobis-2-nitrobenzoic acid (DTNB-Ellman’s reagent−3 mM) in buffer B, and acetylthiocholine iodide (ACTI−6 mM) in H2O. Tested compounds were dissolved in DMSO at 10 mg/mL, stored at −20 °C, and subsequently 100 times diluted in H2O before the assay. 10 μL AChE was preincubated for 10 min with 70 μL DTNB and 10 μL compounds solution in 96-well microplates. […] After 30 min at 25 °C, absorbance of the plate was measured at 405 nm using a microplate reader (Tecan Infinite M200). Percentage of inhibition was calculated using the following equation: 100 × (Acontrol − Asample)/(Acontrol − A0), where Acontrol is the average absorbance of the wells in which tested compounds were replaced by water, Asample is the absorbance of the well with tested compound, and A0 the average absorbance of blank wells where AChE was omitted. […]
Each assay was performed in triplicate and results are expressed as mean values ± SD.

With agelorin A [agelorin A (11)], the “Acetylcholinesterase IC50” value is reported as “better activity than the reference compound Galantamine” and the IC50 came to 190 ± 200 nM.
